Only a part is listed here, and it is no random draw. Records with an inconclusive call do not appear. Active and inactive are the calls of the source. The calls were made as follows, unless noted: active = hit-call score of the fitted dose curve at least 0.9, where 1 is the maximum; inconclusive = response in the unintended direction; inactive = score below 0.9.
Assays:
[1] = target: Peroxisome proliferator-activated receptor gamma (Homo sapiens) (UniProt P37231); test: ATG_PPARg_TRANS: Attagene TRANS-FACTORIAL HepG2 Assay for human Peroxisome Proliferator-activated Receptor-gamma (PPARg) (AID 2283007)
Procedure, shortened: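 Transient transfection of HepG2 with GAL4-UAS-driven reporter units; chemical dosing 24 h; total RNA → oligo(dT) RT → PCR with reporter primers → 6-FAM primer extension → HpaI digest 2 h 37 C → capillary electrophoresis. Positive direction vs DMSO.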

Protein sequences, listed by entry. Tags and fused reporters are not part of them. Lines headed by an entry give the natural chain unless they say otherwise; changes in a name come on top.
UniProt P37231: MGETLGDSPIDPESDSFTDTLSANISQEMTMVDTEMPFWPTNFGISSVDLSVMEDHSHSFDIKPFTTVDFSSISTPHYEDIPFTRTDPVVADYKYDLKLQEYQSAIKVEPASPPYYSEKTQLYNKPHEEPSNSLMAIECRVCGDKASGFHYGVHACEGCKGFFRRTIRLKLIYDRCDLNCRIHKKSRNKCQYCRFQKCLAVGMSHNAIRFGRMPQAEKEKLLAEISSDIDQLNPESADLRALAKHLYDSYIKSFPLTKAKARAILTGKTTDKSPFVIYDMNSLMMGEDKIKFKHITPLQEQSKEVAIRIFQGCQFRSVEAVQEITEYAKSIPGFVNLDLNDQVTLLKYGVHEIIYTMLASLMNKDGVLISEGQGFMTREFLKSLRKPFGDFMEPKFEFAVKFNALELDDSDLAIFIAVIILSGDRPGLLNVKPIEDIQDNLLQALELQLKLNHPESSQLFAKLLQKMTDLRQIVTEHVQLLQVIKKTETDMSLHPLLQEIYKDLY
UniProt O75469: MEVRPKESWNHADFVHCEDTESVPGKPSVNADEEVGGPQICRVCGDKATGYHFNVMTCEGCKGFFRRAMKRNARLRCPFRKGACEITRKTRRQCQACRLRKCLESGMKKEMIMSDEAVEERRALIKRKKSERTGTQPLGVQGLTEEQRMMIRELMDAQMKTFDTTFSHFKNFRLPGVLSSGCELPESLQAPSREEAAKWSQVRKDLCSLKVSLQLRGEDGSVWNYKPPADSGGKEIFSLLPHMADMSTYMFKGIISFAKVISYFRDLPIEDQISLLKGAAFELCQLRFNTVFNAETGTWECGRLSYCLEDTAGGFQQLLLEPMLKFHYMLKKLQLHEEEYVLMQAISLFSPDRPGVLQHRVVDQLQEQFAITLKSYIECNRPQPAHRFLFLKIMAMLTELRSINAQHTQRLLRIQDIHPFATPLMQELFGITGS
UniProt P13631, whole entry, looked up: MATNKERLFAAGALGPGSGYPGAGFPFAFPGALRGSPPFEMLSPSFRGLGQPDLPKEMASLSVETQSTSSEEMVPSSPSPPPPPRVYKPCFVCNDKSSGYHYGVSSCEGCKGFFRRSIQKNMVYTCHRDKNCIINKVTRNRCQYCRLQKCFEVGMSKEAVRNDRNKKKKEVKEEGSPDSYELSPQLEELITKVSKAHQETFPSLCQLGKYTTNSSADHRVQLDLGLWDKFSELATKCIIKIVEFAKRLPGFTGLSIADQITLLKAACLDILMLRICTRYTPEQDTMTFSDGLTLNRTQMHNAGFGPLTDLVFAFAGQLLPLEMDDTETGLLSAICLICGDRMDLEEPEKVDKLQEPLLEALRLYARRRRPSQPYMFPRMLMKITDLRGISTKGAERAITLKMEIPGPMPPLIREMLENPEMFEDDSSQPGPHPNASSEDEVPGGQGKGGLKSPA
UniProt P10827: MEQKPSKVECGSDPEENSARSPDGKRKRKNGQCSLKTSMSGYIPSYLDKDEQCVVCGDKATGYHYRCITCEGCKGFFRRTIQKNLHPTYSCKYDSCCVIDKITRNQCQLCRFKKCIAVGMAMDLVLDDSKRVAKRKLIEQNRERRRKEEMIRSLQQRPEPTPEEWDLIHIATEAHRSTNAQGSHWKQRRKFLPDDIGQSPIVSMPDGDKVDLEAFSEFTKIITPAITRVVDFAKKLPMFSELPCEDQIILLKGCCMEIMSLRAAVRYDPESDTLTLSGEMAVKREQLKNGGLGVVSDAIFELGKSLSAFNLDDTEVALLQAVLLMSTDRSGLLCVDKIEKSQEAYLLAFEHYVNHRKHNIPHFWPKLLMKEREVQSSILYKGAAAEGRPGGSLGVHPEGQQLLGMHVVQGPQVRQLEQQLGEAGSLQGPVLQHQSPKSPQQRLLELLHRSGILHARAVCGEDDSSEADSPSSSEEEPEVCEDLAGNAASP
UniProt P16581: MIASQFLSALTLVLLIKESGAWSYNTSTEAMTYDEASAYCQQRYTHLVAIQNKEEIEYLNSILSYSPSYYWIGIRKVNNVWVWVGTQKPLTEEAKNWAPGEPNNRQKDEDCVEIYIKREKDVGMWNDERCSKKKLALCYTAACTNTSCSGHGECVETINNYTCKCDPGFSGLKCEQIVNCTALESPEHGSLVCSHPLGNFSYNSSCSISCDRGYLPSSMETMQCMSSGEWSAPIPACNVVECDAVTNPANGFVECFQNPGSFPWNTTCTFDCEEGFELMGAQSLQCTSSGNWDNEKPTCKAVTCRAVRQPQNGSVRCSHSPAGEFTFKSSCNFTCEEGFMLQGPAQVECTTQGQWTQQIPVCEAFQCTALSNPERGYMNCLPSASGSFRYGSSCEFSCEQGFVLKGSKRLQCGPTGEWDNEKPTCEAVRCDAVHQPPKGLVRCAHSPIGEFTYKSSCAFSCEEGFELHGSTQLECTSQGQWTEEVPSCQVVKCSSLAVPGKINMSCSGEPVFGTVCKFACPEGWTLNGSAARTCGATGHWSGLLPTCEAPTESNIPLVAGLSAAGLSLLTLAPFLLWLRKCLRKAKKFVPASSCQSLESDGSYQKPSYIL
UniProt P28702: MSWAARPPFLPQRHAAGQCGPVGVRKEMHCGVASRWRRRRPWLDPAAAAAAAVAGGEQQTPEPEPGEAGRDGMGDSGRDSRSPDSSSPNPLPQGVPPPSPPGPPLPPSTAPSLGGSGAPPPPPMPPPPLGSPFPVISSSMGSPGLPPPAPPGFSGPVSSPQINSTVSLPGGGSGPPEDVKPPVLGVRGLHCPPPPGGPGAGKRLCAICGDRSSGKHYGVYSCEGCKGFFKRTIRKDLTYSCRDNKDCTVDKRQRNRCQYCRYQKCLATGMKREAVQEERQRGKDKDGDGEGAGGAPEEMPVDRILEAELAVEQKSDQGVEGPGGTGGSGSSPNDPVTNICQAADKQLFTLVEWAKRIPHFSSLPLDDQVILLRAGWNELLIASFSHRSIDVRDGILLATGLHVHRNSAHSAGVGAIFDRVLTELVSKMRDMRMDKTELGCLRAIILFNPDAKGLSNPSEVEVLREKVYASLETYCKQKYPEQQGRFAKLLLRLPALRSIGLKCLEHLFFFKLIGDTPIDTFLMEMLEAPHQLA
UniProt P51449: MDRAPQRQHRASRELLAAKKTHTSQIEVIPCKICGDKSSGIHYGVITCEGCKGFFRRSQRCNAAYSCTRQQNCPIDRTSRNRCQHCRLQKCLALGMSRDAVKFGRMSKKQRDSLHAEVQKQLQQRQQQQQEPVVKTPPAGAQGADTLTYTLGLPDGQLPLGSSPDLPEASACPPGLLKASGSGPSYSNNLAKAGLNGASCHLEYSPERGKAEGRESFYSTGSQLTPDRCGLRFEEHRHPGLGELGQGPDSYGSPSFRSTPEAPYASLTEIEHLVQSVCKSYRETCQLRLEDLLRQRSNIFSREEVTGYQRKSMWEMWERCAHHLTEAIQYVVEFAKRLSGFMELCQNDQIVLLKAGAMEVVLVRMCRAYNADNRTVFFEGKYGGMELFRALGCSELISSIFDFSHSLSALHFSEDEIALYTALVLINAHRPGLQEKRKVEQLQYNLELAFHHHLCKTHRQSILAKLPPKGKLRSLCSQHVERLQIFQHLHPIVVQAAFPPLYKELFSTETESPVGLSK

[2] = target: Nuclear receptor subfamily 1 group I member 2 (Homo sapiens) (UniProt O75469); test: ATG_PXR_TRANS: Attagene TRANS-FACTORIAL HepG2 Assay for human Pregnane X Receptor (PXR) (AID 2283008)
Procedure, shortened: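 HepG2 cells transiently transfected with multiple reporter units, here a PXR-GAL4 chimera driving a GAL4-UAS reporter; 24 h compound exposure. Reporter mRNA measured by RT-PCR, FAM labelling and capillary electrophoresis; gain of signal fitted against DMSO baseline.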

[3] = target: human Retinoic Acid Receptor gamma (RARg), RARG (gene 5916) (UniProt P13631); test: ATG_RARg_TRANS: Attagene TRANS-FACTORIAL HepG2 Assay for human Retinoic Acid Receptor gamma (RARg) (AID 2283009)
Procedure, shortened: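 HepG2 cells transiently transfected with multiplexed reporter units expressing chimeric RARg-GAL4 and GAL4-UAS-driven reporters; 24 h compound exposure. Reporter mRNA quantified by RT-PCR with fluorescent labelling and capillary electrophoresis; gain-of-signal fitted relative to DMSO baseline.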

[4] = target: human Thyroid Receptor alpha (THRa1), THRA (gene 7067) (UniProt P10827); test: ATG_THRa1_TRANS: Attagene TRANS-FACTORIAL HepG2 Assay for human Thyroid Receptor alpha (THRa1) (AID 2283014)
Procedure, shortened: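 Transcripts from GAL4-UAS-driven reporters, measured after 24 h compound exposure by RT-PCR plus capillary electrophoresis of 6-FAM-labeled fragments, were fitted for gain of signal relative to DMSO. Cells: transiently transfected HepG2 expressing NR-Gal4 chimeras.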

[5] = read-out: E-selectin (Homo sapiens) (UniProt P16581); test: BSK_3C_Eselectin: BioMAP Diversity Plus: 3C Assay for Eselectin Biomarker Activity (AID 2283015; active = hit-call score of the fitted dose curve at least 0.9, where 1 is the maximum; inactive = score below 0.9); settings: actives raise or lower the signal; primary human endothelial cells (HUVEC)
Procedure, shortened: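 E-selectin ELISA readout, fitted bidirectionally relative to DMSO, taken 24 h post-dosing in HUVEC cultures of the 3C system. Overt cytotoxicity tracked with sulforhodamine B staining of parallel wells.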

[6] = read-out: Monocyte Chemoattractant Protein-1 (MCP1), CCL2 (gene 6347); test: BSK_3C_MCP1: BioMAP Diversity Plus: 3C Assay for Monocyte Chemoattractant Protein-1 (MCP1) Biomarker Activity (AID 2283017; active = hit-call score of the fitted dose curve at least 0.9, where 1 is the maximum; inactive = score below 0.9); settings: actives raise or lower the signal; primary human endothelial cells (HUVEC)
Procedure, shortened: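 MCP-1 was measured by ELISA 24 h after dosing in primary HUVEC 3C cultures and fitted in both directions relative to DMSO; cytotoxicity was checked by SRB total-protein staining in parallel wells.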

[7] = read-out: Monocyte Chemoattractant Protein-1 (MCP1), CCL2 (gene 6347); test: BSK_4H_MCP1: BioMAP Diversity Plus: 4H Assay for Monocyte Chemoattractant Protein-1 (MCP1) Biomarker Activity (AID 2283018; active = hit-call score of the fitted dose curve at least 0.9, where 1 is the maximum; inactive = score below 0.9); settings: actives raise or lower the signal; primary human endothelial cells (HUVEC)
Procedure, shortened: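 Human umbilical vein endothelial cells (4H system) dosed with chemical; MCP-1 measured by ELISA 24 h after dosing. Bidirectional curve fitting against DMSO negative control as baseline; parallel SRB total-protein staining tracks overt cytotoxicity.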

[8] = target: human Retinoid X Receptor beta (RXRb), RXRB (gene 6257) (UniProt P28702); test: ATG_RXRb_TRANS: Attagene TRANS-FACTORIAL HepG2 Assay for human Retinoid X Receptor beta (RXRb) (AID 2283013)
Procedure, shortened: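 HepG2 cells transiently transfected with multiplexed reporter units driven by GAL4-UAS and exogenous chimeric NR-Gal4 proteins; treated 24 h. Reporter mRNA measured by RT-PCR, 6-FAM labelling and capillary electrophoresis; gain-of-signal fitted versus DMSO baseline.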

[9] = target: human RAR-related Orphan Receptor gamma (RORg), RORC (gene 6097) (UniProt P51449); test: ATG_RORg_TRANS: Attagene TRANS-FACTORIAL HepG2 Assay for human RAR-related Orphan Receptor gamma (RORg) (AID 2283011)
Procedure, shortened: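 Reporter transcripts from a transfected RORg-GAL4 chimera in HepG2 cells were quantified 24 h after dosing by RT-PCR, 6-FAM labelling, HpaI digestion and capillary electrophoresis; increases over DMSO baseline were fitted.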

[10] = read-out: Interleukin-1 alpha (IL1a), IL1A (gene 3552); test: BSK_BE3C_IL1a: BioMAP Diversity Plus: BE3C Assay for Interleukin-1 alpha (IL1a) Biomarker Activity (AID 2283016; active = hit-call score of the fitted dose curve at least 0.9, where 1 is the maximum; inactive = score below 0.9); settings: actives raise or lower the signal; primary human bronchial epithelial cells
Procedure, shortened: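 Human primary bronchial epithelial cells (BE3C system) were dosed with compound and IL-1a measured by ELISA 24 h later. Activity was fitted bidirectionally against DMSO baseline; cytotoxicity was tracked in parallel cultures by SRB total-protein staining.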

Measured: AC50

O=C1C2CC=CCC2C(=O)N1SC(Cl)(Cl)C(Cl)Cl (stereo unspecified)
inactive: [1] | [2] | [3] | [4]
active: [5] 13.5 µM | [6] 14.4 µM | [7] 14.5 µM

O=P(Cl)(Oc1ccccc1)Oc1ccccc1
inactive: [1] | [2] | [4]

CC(C)CCCCCCCOP(OCCCCCCCC(C)C)Oc1ccccc1
active: [1] 36.6 µM | [2] 1.22 µM
inactive: [3] | [8] | [4]

O=[As]c1ccccc1 (stereo unspecified)
inactive: [1] | [9] | [4]

O=[N+]([O-])c1ccc([N+](=O)[O-])cc1
not listed: [4] | [8]
inactive: all other assays above

Reference: PubChem BioAssay (EPA / NIEHS)
